How the values were obtained:
[1] = target: CBP BRD protein (Homo sapiens, UniProt Q92793); test: CBP inhibitory activity, TR-FRET assay of the CBP bromodomain; settings: read-out: CBP BRD IC50, CBP BRD protein 7.5 nM, Ac-H4 peptide 85 nM, room temperature 2 hours
Description: A time resolved fluorescence resonance energy transfer (TR-FRET) experiment was used to verify the activity of CBP bromodomain.
(§1) The assay was performed in a final volume of 14 µl, optimized based on a CREBBP time resolved fluorescence resonance energy transfer (TR-FRET) assay kit (BPS Bioscience, cat. 32619) to maximize an assay window, and performed in a final volume of 14 µl, while maximizing the assay window. A TR-FRET fluorescence acceptor and a Tb donor were diluted in an assay buffer containing 2-[4-(2-hydroxyethyl)piperazin-1-yl]ethanesulfonic acid (hereafter, referred to as an assay buffer, BPS Bioscience, cat. 33012), and 3 µl of each solution was transferred to all wells of a white 384-low-volume well plate (Corning, cat. 4513). 2 µl of 4X Ac-H4 peptide (final concentration 85 nM) was transferred to high control wells and test wells. Each compound was prepared at 10 concentration points by serially diluting 3-fold from the highest concentration in a dimethyl sulfoxide solvent. The compound at each concentration was then diluted in the assay buffer to prepare a diluted compound solution that was 4-fold more concentrated than the final concentration. 2 µl of each compound or dimethyl sulfoxide prepared in this way was distributed into an assay plate so that the final test concentration was a minimum of 0.5 µM to a maximum of 10 µM (final dimethyl sulfoxide concentration 1%). 6 µL of 1X assay buffer was added to low control wells and 2 µl was added to high control and test wells. Then, 2 µl of 4X CBP BRD protein (final concentration 7.5 nM, BPS bioscience, cat 31128) was added to initiate a PPI reaction. The plate was reacted at room temperature for 2 hours before measuring the signal. The TR-FRET signal was measured using an EnVision Multilabel plate reader (PerkinElmer; Mirror LNACE/DELFIA Dual/Bias). For data analysis, the values of each well were obtained using a TR-FRET ratio ((Signal 665 nm/Signal 615 nm) × 20000). Data analysis was performed using the TR-FRET ratio ((Signal 665 nm/Signal 615 nm) × 20000). Data were reported as percent inhibition compared to control wells based on the following equation: %Activity = ((FRETcompound - FRETLow av)/(FRETHigh av - FRETLow av)) × 100. IC50 analysis was determined by standard 4 parameter curve fitting according to an algorithm using GraphPad Prism 7.0 (GraphPad Software Inc., La Jolla, CA, USA). All data are expressed as mean ± standard error of the mean (SEM).

The chains behind the UniProt entries cited, without tags or fusion partners. Residues count along the entry.
UniProt Q92793, 1085-1192 limits assumed: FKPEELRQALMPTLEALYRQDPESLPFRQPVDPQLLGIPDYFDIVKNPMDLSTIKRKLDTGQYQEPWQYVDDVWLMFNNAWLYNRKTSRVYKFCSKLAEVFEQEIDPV

[2] = target: BRD4 (BD1) protein (Homo sapiens, UniProt O60885); test: BRD4 inhibitory activity, TR-FRET assay of the BRD4 bromodomain; settings: read-out: BRD4 (BD1) IC50, BRD4 (BD1) protein 7.5 nM, Ac-H4 peptide 15 nM, room temperature 2 hours
Description: BRD4 inhibitory activity was measured using a time resolved fluorescence resonance energy transfer (TR-FRET) experiment to verify the activity of BRD4 bromodomain.
as §1, with “Bioscience, cat. 32613) to maximize” for “Bioscience, cat. 32619) to maximize”, “(final concentration 15 nM) was” for “(final concentration 85 nM) was”, “µM (final DMSO concentration 1%).” for “µM (final dimethyl sulfoxide concentration 1%).”, “of 4X BRD4 (BD1) protein (final” for “of 4X CBP BRD protein (final”, “bioscience, cat 31040) was added” for “bioscience, cat 31128) was added”, “obtained using the TR-FRET ratio” for “obtained using a TR-FRET ratio”

| Compound | IC50 [1] | IC50 [2] |
| --- | --- | --- |
| Cc1ccc2c(-c3nc4cnccc4n3-c3ccc4c(c3)n(C)c(=O)n4C)c[nH]c2c1 | 0.5 to 5 µM | 0.5 to 5 µM |
| CNS(=O)(=O)c1ccc2nc(-c3c[nH]c4cc(C)ccc34)n(-c3cc(NC(C)=O)cc(C4CCOCC4)c3)c2c1 | < 0.5 µM | > 5 µM |
| CNS(=O)(=O)c1ccc2nc(-c3c[nH]c4cc(C)ccc34)n(-c3cccc4c3n(C)c(=O)c(=O)n4C)c2c1 | > 5 µM | > 5 µM |
| Cc1ccc2c(-c3nc4ccc(-c5cnn(C)c5)cc4n3-c3ccc4c(c3)n(C)c(=O)n4C)c[nH]c2c1 | > 5 µM | > 5 µM |
| Cc1ccc2c(-c3nc4c(N(C)CC5CCN(C6CCCCC6)C5)ncnc4n3-c3ccc4c(c3)n(C)c(=O)n4C)c[nH]c2c1 (centres unmarked) | < 0.5 µM | 0.5 to 5 µM |
| Cc1ccc2c(-c3nc4c(N(C)CCCN5CCCCCC5)ncnc4n3-c3ccc4c(c3)n(C)c(=O)n4C)c[nH]c2c1 | 0.5 to 5 µM | > 5 µM |
| CNS(=O)(=O)c1ccc2nc(-c3cncn3C)n(-c3cccc4c3n(C)c(=O)n4C)c2c1 | > 5 µM | > 5 µM |
| Cc1ccc2c(-c3nc4ccc(C(=O)O)cc4n3-c3ccc4c(c3)n(C)c(=O)n4C)c[nH]c2c1 | > 5 µM | > 5 µM |
| Cc1ccc2c(-c3nc4ccc(C(F)F)cc4n3-c3ccc4c(c3)n(C)c(=O)n4C)c[nH]c2c1 | > 5 µM | > 5 µM |
| CNS(=O)(=O)c1ccc2[nH]c(=O)n(-c3ccc4c(c3)n(C)c(=O)n4C)c2c1 | > 5 µM | > 5 µM |
| COC(=O)c1ccc2nc(-c3c[nH]c4cc(C)ccc34)n(-c3cc(NC(C)=O)cc(C4CCOCC4)c3)c2c1 | > 5 µM | > 5 µM |
| CNC(=O)c1ccc2nc(-c3c[nH]c4cc(C)ccc34)n(-c3ccc4c(c3)n(C)c(=O)n4C)c2c1 | 0.5 to 5 µM | > 5 µM |
| CNS(=O)(=O)c1ccc2nc(-c3c[nH]c4cc(C)ccc34)n(-c3cccc4c3n(C)c(=O)n4C)c2c1 | > 5 µM | > 5 µM |
| Cc1ccc2c(-c3nc4ccncc4n3-c3ccc4c(c3)n(C)c(=O)n4C)c[nH]c2c1 | 0.5 to 5 µM | > 5 µM |
| CCc1cccc2c(-c3nc4c(N(C)CC5CCN(C6CCCCC6)C5)ncnc4n3-c3ccc4c(c3)n(C)c(=O)n4C)c[nH]c12 (centres unmarked) | < 0.5 µM | 0.5 to 5 µM |
| CNC(=O)c1c[nH]c2ccc(-n3c(-c4c[nH]c5cc(C)ccc45)nc4ccc(S(=O)(=O)NC)cc43)cc12 | > 5 µM | > 5 µM |
| CNS(=O)(=O)c1ccc2nc(-c3c[nH]c4cc(C)ccc34)n(-c3cccc(N(C)C(=O)N(C)C)c3)c2c1 | > 5 µM | > 5 µM |
| CNS(=O)(=O)c1ccc2nc(-c3c[nH]c4cc(C)ccc34)n(-c3cccc(-c4c(C)noc4C)c3)c2c1 | > 5 µM | > 5 µM |

Next, values leading:

| IC50 [1] | IC50 [2] | Compound |
| --- | --- | --- |
| < 0.5 µM | 0.5 to 5 µM | Cc1ccc2c(-c3nc4ccc(S(N)(=O)=O)cc4n3-c3ccc4c(c3)n(C)c(=O)n4C)c[nH]c2c1 |
| 0.5 to 5 µM | > 5 µM | CNS(=O)(=O)c1ccc2nc(-c3csc4ccccc34)n(-c3ccc4c(c3)n(C)c(=O)n4C)c2c1 |
| 0.5 to 5 µM | 0.5 to 5 µM | CNS(=O)(=O)c1ccc2nc(-c3ccc(O)cc3)n(-c3ccc4c(c3)n(C)c(=O)n4C)c2c1 |
| 0.5 to 5 µM | 0.5 to 5 µM | CNS(=O)(=O)c1ccc2nc(-c3cccc4c(F)cccc34)n(-c3ccc4c(c3)n(C)c(=O)n4C)c2c1 |
| > 5 µM | > 5 µM | CNS(=O)(=O)c1ccc2nc(-c3ccccn3)n(-c3ccc4c(c3)n(C)c(=O)n4C)c2c1 |
| 0.5 to 5 µM | 0.5 to 5 µM | CNS(=O)(=O)c1ccc2nc(-c3ccc4[nH]ncc4c3)n(-c3ccc4c(c3)n(C)c(=O)n4C)c2c1 |
| > 5 µM | 0.5 to 5 µM | CNS(=O)(=O)c1ccc2nc(-c3cccn3Cc3cccc(F)c3)n(-c3ccc4c(c3)n(C)c(=O)n4C)c2c1 |
| 0.5 to 5 µM | 0.5 to 5 µM | CNS(=O)(=O)c1ccc2nc(-c3cccn3CC3CC3)n(-c3ccc4c(c3)n(C)c(=O)n4C)c2c1 |
| > 5 µM | > 5 µM | CNS(=O)(=O)c1ccc2nc(-c3cn(C)cn3)n(-c3ccc4c(c3)n(C)c(=O)n4C)c2c1 |
| > 5 µM | 0.5 to 5 µM | CNS(=O)(=O)c1ccc2nc(-c3cccn3Cc3ccc(F)cc3)n(-c3ccc4c(c3)n(C)c(=O)n4C)c2c1 |
| > 5 µM | > 5 µM | CNS(=O)(=O)c1ccc2nc(-c3ccc(NC(C)=O)cc3C)n(-c3ccc4c(c3)n(C)c(=O)n4C)c2c1 |
| 0.5 to 5 µM | > 5 µM | CNS(=O)(=O)c1ccc2nc(-c3ccsc3C)n(-c3ccc4c(c3)n(C)c(=O)n4C)c2c1 |
| < 0.5 µM | 0.5 to 5 µM | CNS(=O)(=O)c1ccc2nc(-c3c[nH]c4nccc(Cl)c34)n(-c3ccc4c(c3)n(C)c(=O)n4C)c2c1 |
| > 5 µM | > 5 µM | CNS(=O)(=O)c1ccc2nc(-c3cccn3Cc3c(F)cccc3F)n(-c3ccc4c(c3)n(C)c(=O)n4C)c2c1 |
| 0.5 to 5 µM | > 5 µM | CNS(=O)(=O)c1ccc2nc(-c3c[nH]c4ccc(C)cc34)n(-c3ccc4c(c3)n(C)c(=O)n4C)c2c1 |
| 0.5 to 5 µM | > 5 µM | CNS(=O)(=O)c1ccc2nc(-c3c[nH]c4cc(C)ccc34)n(-c3ccc4c(c3)n(C)c(=O)n4C)c2c1 |
| < 0.5 µM | 0.5 to 5 µM | CNS(=O)(=O)c1ccc2nc(-c3c[nH]c4cccc(Cl)c34)n(-c3ccc4c(c3)n(C)c(=O)n4C)c2c1 |
| > 5 µM | > 5 µM | CNS(=O)(=O)c1ccc2nc(-c3ccn(Cc4ccccc4)c3)n(-c3ccc4c(c3)n(C)c(=O)n4C)c2c1 |
| 0.5 to 5 µM | > 5 µM | CNS(=O)(=O)c1ccc2nc(-c3cc[nH]c3)n(-c3ccc4c(c3)n(C)c(=O)n4C)c2c1 |
| > 5 µM | 0.5 to 5 µM | CNS(=O)(=O)c1ccc2nc(-c3cccn3Cc3cc(OC)ccc3Br)n(-c3ccc4c(c3)n(C)c(=O)n4C)c2c1 |
| 0.5 to 5 µM | 0.5 to 5 µM | CNS(=O)(=O)c1ccc2nc(-c3cccc(C)c3C)n(-c3ccc4c(c3)n(C)c(=O)n4C)c2c1 |
| 0.5 to 5 µM | > 5 µM | CNS(=O)(=O)c1ccc2nc(-c3ccc[nH]3)n(-c3ccc4c(c3)n(C)c(=O)n4C)c2c1 |
| 0.5 to 5 µM | > 5 µM | CNS(=O)(=O)c1ccc2nc(-c3c[nH]c4cccc(C5CC5)c34)n(-c3ccc4c(c3)n(C)c(=O)n4C)c2c1 |
| 0.5 to 5 µM | > 5 µM | CNS(=O)(=O)c1ccc2nc(-c3c[nH]c4ccncc34)n(-c3ccc4c(c3)n(C)c(=O)n4C)c2c1 |
| 0.5 to 5 µM | > 5 µM | CNS(=O)(=O)c1ccc2nc(-c3cccc4ccncc34)n(-c3ccc4c(c3)n(C)c(=O)n4C)c2c1 |

Reference: patent publication EP4837907A1, “NOVEL COMPOUND USED AS CBP/P300 INHIBITOR, AND PHARMACEUTICAL COMPOSITION FOR PREVENTING OR TREATING CANCER, INFLAMMATORY DISORDERS, OR AUTOIMMUNE DISEASES COMPRISING SAME AS ACTIVE INGREDIENT” (dated 2026)
